The values below are quoted from earlier work in publication PMC12281572.

This data set is described as follows: FTIR, 4-fluorophenol as donor (the pK_BHX database, per the paper). The settings on record: CCl4; 25 C.
For `c1ccc2ccccc2c1`, the “pK_BHX (log10 Kf of the 1:1 H-bond complex with 4-fluorophenol, by FTIR)” value was -0.48 log units.

On to `O=c1ccc2ccccc2o1`, for which the “pK_BHX (log10 Kf of the 1:1 H-bond complex with 4-fluorophenol, by FTIR)” value is given as 1.3 log units. `Cc1c(N(C)C)c(=O)n(-c2ccccc2)n1C`: the “pK_BHX (log10 Kf of the 1:1 H-bond complex with 4-fluorophenol, by FTIR)” value is on record as 2.45 log units.
